Chains of the proteins cited; added tags and fusions are not shown. Residues count along the entry.
UniProt Q07820, 171-327: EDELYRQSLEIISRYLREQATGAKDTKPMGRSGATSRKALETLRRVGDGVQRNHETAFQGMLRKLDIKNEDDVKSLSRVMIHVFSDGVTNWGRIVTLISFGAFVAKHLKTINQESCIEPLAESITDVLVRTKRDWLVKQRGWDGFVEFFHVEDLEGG

According to patent US12091425B2 (AMGEN INC., priority 2016, dated 2024):

Biological target: T1, Mcl-1/Bim interaction, recombinant human Mcl-1 (171-327) (Homo sapiens, UniProt Q07820)
T1 construct: made in house
Assay: Cell free Mcl-1: Bim Affinity Assay (Mcl-1 HTRF)
Type: binding
Settings: cell free Mcl-1:Bim TR-FRET
Protocol: Cell free Mcl-1: Bim Affinity Assay (Mcl-1 HTRF)
The inhibition of the Mcl-1/Bim interaction was measured using a time-resolved fluorescence resonance energy transfer (TR-FRET) assay. […] A biotinylated peptide derived from human Bim (residues 51-76) was purchased from CPC Scientific (San Jose, CA). The TR-FRET assay was conducted in a 384-well white OptiPlatem (PerkinElmer, Waltham, MA) in a total volume of 40 μL. […] The reaction plates were further incubated overnight and then were read on an Envision® multimode reader (PerkinElmer). […] The IC50 values of test compounds were determined from duplicate data by analyzing competition curves using a four-parameter sigmoidal model in GraphPad Prism (GraphPad Software, San Diego, CA) or in Genedata Screener® (Genedata, Basel, Switzerland).

C=C1CCC[C@H](C)[C@@H](C)S(=O)(=O)NC(=O)c2ccc3c(c2)N(C[C@@H]2CC[C@@H]12)C[C@@]1(CCCc2cc(Cl)ccc21)CO3 [Example 581, (1S,3′R,6′R,11′S,12′R)-6-chloro-11′,12′-dimethyl-7′-methylidene-3,4-dihydro-2H,15′H-spiro[naphthalene-1,22′-[20]oxa[13]thia[1,14]diazatetracyclo[14.7.2.0^3,6.0^19,24]pentacosa [16,18,24]trien]-15′-one 13′,13′-dioxide]
IC50: 9.43 nM
